The values below come from patent publication CN115975031A.

In the test the target is 表皮生长因子受体 (EGFR), on DiFi human colorectal cancer cells (human) (UniProt P00533). Description: cell-based or functional assay.

“重组抗EGFR单克隆抗体的酸性组分 (HPLC-CEX保留时间小于10min的组分) (antibody)” came in with a 生物活性 (DiFi细胞增殖抑制实验, CCK-8, OD450), 相对标准品Erbitux150819 (% of standard Erbitux150819) of 30.
